This passage reports MIC results from patent US4681872A (priority 1985, dated 1987).

In this assay the test system is E. coli JUHL. The following applies: BHI agar, 35°-37° C., 20-24 hours.

≈ marks a conversion by molar mass, not a printed value.

Regarding `CCC1OC(=O)C(C)C(OC2CC(C)(OC)CC(C)O2)C(C)C(OC2OC(C)CC(N(C)C)C2O)C(C)(O)CC(C)C(=O)C(C)C2OC(=O)OC12C` (stereo not shown) [4"-deoxyerythromycin A 11,12-carbonate], the MIC came to 12.5 µg/mL (≈ 16.8 µM).
